# CycPeptMPDB entries from one study

Collected by the curators of CycPeptMPDB (Li et al. 2023) from Kelly et al. 2021, doi:10.1021/jacs.0c06115.

PAMPA measures passive passage through an artificial lipid membrane.
MDCK: transport across canine kidney epithelial cells.
Permeability is in 10^-6 cm/s, converted from the database's log10 values; higher is more permeable.
Cells with "–" have no entry in this list.

structure (SMILES) | PAMPA (10^-6 cm/s) | MDCK (10^-6 cm/s)
CC(=O)N1CCC[C@H]1C(=O)N(C)[C@H](CC(C)C)C(=O)N[C@@H]1C(=O)N[C@@H](CC(C)C)C(=O)N[C@H](CC(C)C)C(=O)N(C)[C@@H](CC(C)C)C(=O)N(C)[C@@H](C)C(=O)N[C@@H](CC(C)C)C(=O)N2CCC[C@@H]2C(=O)O[C@@H]1C | 4.3 | –
CC(=O)N1CCC[C@H]1C(=O)N(C)[C@H](CC(C)C)C(=O)N[C@@H]1C(=O)N[C@H](CC(C)C)C(=O)N[C@@H](CC(C)C)C(=O)N(C)[C@H](CC(C)C)C(=O)N[C@H](C)C(=O)N[C@@H](CC(C)C)C(=O)N2CCC[C@@H]2C(=O)O[C@@H]1C | 5.9 | –
CC(=O)N1CCC[C@@H]1C(=O)N(C)[C@@H](CC(C)C)C(=O)N[C@@H]1C(=O)N(C)[C@@H](CC(C)C)C(=O)N[C@@H](CC(C)C)C(=O)N(C)[C@@H](CC(C)C)C(=O)N[C@@H](C)C(=O)N[C@H](CC(C)C)C(=O)N2CCC[C@@H]2C(=O)O[C@@H]1C | 0.37 | –
CC(=O)N1CCC[C@H]1C(=O)N(C)[C@H](CC(C)C)C(=O)N[C@@H]1C(=O)N[C@H](CC(C)C)C(=O)N[C@@H](CC(C)C)C(=O)N[C@H](CC(C)C)C(=O)N(C)[C@H](C)C(=O)N[C@@H](CC(C)C)C(=O)N2CCC[C@H]2C(=O)O[C@@H]1C | 8.7 | 14
CC(=O)N1CCC[C@@H]1C(=O)N(C)[C@H](CC(C)C)C(=O)N[C@@H]1C(=O)N[C@H](CC(C)C)C(=O)N(C)[C@@H](CC(C)C)C(=O)N[C@@H](CC(C)C)C(=O)N(C)[C@@H](C)C(=O)N[C@H](CC(C)C)C(=O)N2CCC[C@H]2C(=O)O[C@@H]1C | 8.5 | –
CC(=O)N1CCC[C@H]1C(=O)N[C@@H]1C(=O)N[C@H](CC(C)C)C(=O)N[C@@H](CC(C)C)C(=O)N[C@@H](CC(C)C)C(=O)N[C@@H](CC(C)C)C(=O)N(C)[C@H](C)C(=O)N[C@@H](CC(C)C)C(=O)N2CCC[C@@H]2C(=O)O[C@@H]1C | 0.083 | –
CC(=O)N1CCC[C@@H]1C(=O)N(C)[C@H](CC(C)C)C(=O)N[C@@H]1C(=O)N(C)[C@@H](CC(C)C)C(=O)N[C@H](CC(C)C)C(=O)N(C)[C@H](CC(C)C)C(=O)N[C@@H](C)C(=O)N[C@@H](CC(C)C)C(=O)N2CCC[C@@H]2C(=O)O[C@@H]1C | 0.28 | –
CC(=O)N1CCC[C@H]1C(=O)N(C)[C@@H](CC(C)C)C(=O)N[C@@H]1C(=O)N[C@H](CC(C)C)C(=O)N[C@@H](CC(C)C)C(=O)N(C)[C@H](CC(C)C)C(=O)N(C)[C@H](C)C(=O)N[C@H](CC(C)C)C(=O)N2CCC[C@@H]2C(=O)O[C@@H]1C | 1.4 | –
CC(=O)N1CCC[C@@H]1C(=O)N(C)[C@H](CC(C)C)C(=O)N[C@@H]1C(=O)N(C)[C@H](CC(C)C)C(=O)N[C@H](CC(C)C)C(=O)N(C)[C@@H](CC(C)C)C(=O)N(C)[C@H](C)C(=O)N[C@@H](CC(C)C)C(=O)N2CCC[C@H]2C(=O)O[C@@H]1C | 3.1 | –
CC(=O)N1CCC[C@H]1C(=O)N(C)[C@@H](CC(C)C)C(=O)N[C@@H]1C(=O)N(C)[C@@H](CC(C)C)C(=O)N(C)[C@@H](CC(C)C)C(=O)N[C@@H](CC(C)C)C(=O)N[C@@H](C)C(=O)N[C@H](CC(C)C)C(=O)N2CCC[C@H]2C(=O)O[C@@H]1C | 0.055 | –
CC(=O)N1CCC[C@H]1C(=O)N(C)[C@@H](CC(C)C)C(=O)N[C@@H]1C(=O)N[C@H](CC(C)C)C(=O)N(C)[C@H](CC(C)C)C(=O)N(C)[C@@H](CC(C)C)C(=O)N(C)[C@H](C)C(=O)N[C@H](CC(C)C)C(=O)N2CCC[C@@H]2C(=O)O[C@@H]1C | 0.62 | –
CC(=O)N1CCC[C@@H]1C(=O)N(C)[C@@H](CC(C)C)C(=O)N[C@@H]1C(=O)N(C)[C@@H](CC(C)C)C(=O)N(C)[C@H](CC(C)C)C(=O)N(C)[C@H](CC(C)C)C(=O)N(C)[C@@H](C)C(=O)N[C@H](CC(C)C)C(=O)N2CCC[C@@H]2C(=O)O[C@@H]1C | 2.8 | –
CC(=O)N1CCC[C@H]1C(=O)N(C)[C@@H](CC(C)C)C(=O)N[C@@H]1C(=O)N[C@@H](CC(C)C)C(=O)N[C@@H](CC(C)C)C(=O)N[C@H](CC(C)C)C(=O)N[C@@H](C)C(=O)N[C@@H](CC(C)C)C(=O)N2CCC[C@H]2C(=O)O[C@@H]1C | 0.2 | –
CC(=O)N1CCC[C@H]1C(=O)N[C@@H]1C(=O)N[C@H](CC(C)C)C(=O)N(C)[C@H](CC(C)C)C(=O)N(C)[C@H](CC(C)C)C(=O)N[C@H](CC(C)C)C(=O)N(C)[C@@H](C)C(=O)N[C@@H](CC(C)C)C(=O)N2CCC[C@@H]2C(=O)O[C@@H]1C | 12 | –
CC(=O)N1CCC[C@@H]1C(=O)N(C)[C@@H](CC(C)C)C(=O)N[C@@H]1C(=O)N(C)[C@@H](CC(C)C)C(=O)N(C)[C@H](CC(C)C)C(=O)N[C@@H](CC(C)C)C(=O)N(C)[C@H](C)C(=O)N[C@@H](CC(C)C)C(=O)N2CCC[C@H]2C(=O)O[C@@H]1C | 1.3 | –
CC(=O)N1CCC[C@@H]1C(=O)N(C)[C@@H](CC(C)C)C(=O)N[C@@H]1C(=O)N[C@H](CC(C)C)C(=O)N(C)[C@H](CC(C)C)C(=O)N(C)[C@H](CC(C)C)C(=O)N(C)[C@@H](C)C(=O)N[C@@H](CC(C)C)C(=O)N2CCC[C@H]2C(=O)O[C@@H]1C | 4.9 | –
CC(=O)N1CCC[C@@H]1C(=O)N(C)[C@@H](CC(C)C)C(=O)N[C@@H]1C(=O)N(C)[C@H](CC(C)C)C(=O)N[C@H](CC(C)C)C(=O)N(C)[C@H](CC(C)C)C(=O)N[C@@H](C)C(=O)N[C@@H](CC(C)C)C(=O)N2CCC[C@@H]2C(=O)O[C@@H]1C | 0.45 | –
CC(=O)N1CCC[C@H]1C(=O)N[C@@H]1C(=O)N[C@H](CC(C)C)C(=O)N[C@H](CC(C)C)C(=O)N[C@@H](CC(C)C)C(=O)N(C)[C@@H](CC(C)C)C(=O)N[C@@H](C)C(=O)N[C@@H](CC(C)C)C(=O)N2CCC[C@@H]2C(=O)O[C@@H]1C | 2.4 | –
CC(=O)N1CCC[C@@H]1C(=O)N(C)[C@H](CC(C)C)C(=O)N[C@@H]1C(=O)N(C)[C@@H](CC(C)C)C(=O)N(C)[C@@H](CC(C)C)C(=O)N[C@H](CC(C)C)C(=O)N[C@H](C)C(=O)N[C@H](CC(C)C)C(=O)N2CCC[C@H]2C(=O)O[C@@H]1C | 0.34 | –
CC(=O)N1CCC[C@H]1C(=O)N(C)[C@H](CC(C)C)C(=O)N[C@@H]1C(=O)N(C)[C@@H](CC(C)C)C(=O)N[C@@H](CC(C)C)C(=O)N[C@H](CC(C)C)C(=O)N(C)[C@@H](C)C(=O)N[C@@H](CC(C)C)C(=O)N2CCC[C@H]2C(=O)O[C@@H]1C | 7.4 | –
CC(=O)N1CCC[C@@H]1C(=O)N(C)[C@H](CC(C)C)C(=O)N[C@@H]1C(=O)N[C@@H](CC(C)C)C(=O)N[C@@H](CC(C)C)C(=O)N(C)[C@@H](CC(C)C)C(=O)N(C)[C@@H](C)C(=O)N[C@@H](CC(C)C)C(=O)N2CCC[C@@H]2C(=O)O[C@@H]1C | 0.49 | –

Excerpt, the opening 2 entries:

{"smiles": "CC(=O)N1CCC[C@H]1C(=O)N(C)[C@H](CC(C)C)C(=O)N[C@@H]1C(=O)N[C@@H](CC(C)C)C(=O)N[C@H](CC(C)C)C(=O)N(C)[C@@H](CC(C)C)C(=O)N(C)[C@@H](C)C(=O)N[C@@H](CC(C)C)C(=O)N2CCC[C@@H]2C(=O)O[C@@H]1C", "PAMPA (10^-6 cm/s)": "4.3"}
{"smiles": "CC(=O)N1CCC[C@H]1C(=O)N(C)[C@H](CC(C)C)C(=O)N[C@@H]1C(=O)N[C@H](CC(C)C)C(=O)N[C@@H](CC(C)C)C(=O)N(C)[C@H](CC(C)C)C(=O)N[C@H](C)C(=O)N[C@@H](CC(C)C)C(=O)N2CCC[C@@H]2C(=O)O[C@@H]1C", "PAMPA (10^-6 cm/s)": "5.9"}

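The data file gives no further conditions (lipid, pH, time, direction or concentration), and values from different papers need not be comparable. Other peptides of the study may be missing here. Entries at the database's floor value (log10 P of -10) are not listed.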